Experimental findings from patent US20260384450A1, “MACROCYCLIC AMINOPYRIDINE COMPOUNDS AS EGFR INHIBITORS” (published 2026) are described below.

Amino acid sequences for entries named in this document (tags omitted). A change or cut given only in a name is not applied to a line headed by its entry. Chains listed by the source or under a name are the forms on record and can include a tag or linker. Residues count along the entry.
UniProt P00533, 25-1210 limits assumed: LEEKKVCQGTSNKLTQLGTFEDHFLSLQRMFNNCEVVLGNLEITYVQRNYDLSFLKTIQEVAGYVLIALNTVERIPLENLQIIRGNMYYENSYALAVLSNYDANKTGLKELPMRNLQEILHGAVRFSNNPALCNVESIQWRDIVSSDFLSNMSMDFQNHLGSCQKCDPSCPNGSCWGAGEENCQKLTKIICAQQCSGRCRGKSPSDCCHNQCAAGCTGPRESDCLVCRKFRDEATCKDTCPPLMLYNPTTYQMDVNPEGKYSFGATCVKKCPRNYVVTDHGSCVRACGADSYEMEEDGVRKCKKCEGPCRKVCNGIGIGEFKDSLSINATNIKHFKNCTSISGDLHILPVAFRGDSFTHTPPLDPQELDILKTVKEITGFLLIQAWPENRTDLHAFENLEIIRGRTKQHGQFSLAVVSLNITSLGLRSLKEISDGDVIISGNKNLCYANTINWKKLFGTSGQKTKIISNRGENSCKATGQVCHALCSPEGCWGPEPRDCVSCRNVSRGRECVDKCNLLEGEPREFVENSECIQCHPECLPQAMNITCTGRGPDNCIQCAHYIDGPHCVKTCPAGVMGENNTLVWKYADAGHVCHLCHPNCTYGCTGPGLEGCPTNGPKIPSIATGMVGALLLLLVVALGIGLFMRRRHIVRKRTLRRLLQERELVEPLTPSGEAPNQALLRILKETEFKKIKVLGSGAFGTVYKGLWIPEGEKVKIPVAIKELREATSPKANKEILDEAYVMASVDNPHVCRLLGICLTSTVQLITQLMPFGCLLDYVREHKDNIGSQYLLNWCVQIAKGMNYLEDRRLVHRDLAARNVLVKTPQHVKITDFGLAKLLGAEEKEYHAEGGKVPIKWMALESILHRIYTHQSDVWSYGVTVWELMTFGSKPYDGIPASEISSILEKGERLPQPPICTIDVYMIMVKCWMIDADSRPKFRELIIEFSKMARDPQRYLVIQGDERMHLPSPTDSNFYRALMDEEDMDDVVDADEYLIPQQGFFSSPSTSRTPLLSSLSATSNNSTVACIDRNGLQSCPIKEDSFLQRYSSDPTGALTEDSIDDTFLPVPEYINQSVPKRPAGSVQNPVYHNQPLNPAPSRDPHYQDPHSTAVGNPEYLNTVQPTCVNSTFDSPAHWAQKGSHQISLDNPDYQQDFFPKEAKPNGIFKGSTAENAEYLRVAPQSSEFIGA
UniProt P00533, 25-1210 C797S/L858R limits assumed: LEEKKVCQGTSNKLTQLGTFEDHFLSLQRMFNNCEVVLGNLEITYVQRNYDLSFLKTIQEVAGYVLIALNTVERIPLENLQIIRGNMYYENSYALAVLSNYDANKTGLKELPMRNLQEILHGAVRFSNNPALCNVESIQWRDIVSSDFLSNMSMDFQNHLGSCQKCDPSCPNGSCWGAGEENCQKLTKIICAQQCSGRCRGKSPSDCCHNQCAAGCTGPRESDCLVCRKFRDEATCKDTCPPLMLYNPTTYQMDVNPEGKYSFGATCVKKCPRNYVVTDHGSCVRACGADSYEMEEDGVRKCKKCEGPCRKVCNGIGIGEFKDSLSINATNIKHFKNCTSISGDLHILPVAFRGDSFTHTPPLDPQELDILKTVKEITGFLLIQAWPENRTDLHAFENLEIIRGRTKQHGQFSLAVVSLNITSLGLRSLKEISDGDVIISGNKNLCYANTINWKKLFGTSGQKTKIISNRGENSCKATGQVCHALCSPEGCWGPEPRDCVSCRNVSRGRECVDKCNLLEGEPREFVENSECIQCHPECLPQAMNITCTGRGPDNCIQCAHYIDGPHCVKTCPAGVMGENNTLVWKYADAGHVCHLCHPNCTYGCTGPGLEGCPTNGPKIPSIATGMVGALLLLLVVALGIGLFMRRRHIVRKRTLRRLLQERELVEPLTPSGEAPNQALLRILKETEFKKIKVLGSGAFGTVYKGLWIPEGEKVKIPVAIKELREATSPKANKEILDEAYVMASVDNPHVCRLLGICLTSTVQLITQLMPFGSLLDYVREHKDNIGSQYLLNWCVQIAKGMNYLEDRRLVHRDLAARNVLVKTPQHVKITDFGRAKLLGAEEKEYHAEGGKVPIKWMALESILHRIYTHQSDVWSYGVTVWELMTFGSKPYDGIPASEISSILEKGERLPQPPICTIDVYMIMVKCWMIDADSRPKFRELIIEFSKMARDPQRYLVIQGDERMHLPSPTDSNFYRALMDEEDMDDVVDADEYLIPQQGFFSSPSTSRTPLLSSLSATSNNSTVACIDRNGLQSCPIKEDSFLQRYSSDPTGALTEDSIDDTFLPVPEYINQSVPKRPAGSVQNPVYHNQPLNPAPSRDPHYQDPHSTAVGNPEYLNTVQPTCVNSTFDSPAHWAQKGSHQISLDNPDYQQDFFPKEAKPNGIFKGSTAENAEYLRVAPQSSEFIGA
UniProt P00533, 25-1210 T790M/C797S/L858R limits assumed: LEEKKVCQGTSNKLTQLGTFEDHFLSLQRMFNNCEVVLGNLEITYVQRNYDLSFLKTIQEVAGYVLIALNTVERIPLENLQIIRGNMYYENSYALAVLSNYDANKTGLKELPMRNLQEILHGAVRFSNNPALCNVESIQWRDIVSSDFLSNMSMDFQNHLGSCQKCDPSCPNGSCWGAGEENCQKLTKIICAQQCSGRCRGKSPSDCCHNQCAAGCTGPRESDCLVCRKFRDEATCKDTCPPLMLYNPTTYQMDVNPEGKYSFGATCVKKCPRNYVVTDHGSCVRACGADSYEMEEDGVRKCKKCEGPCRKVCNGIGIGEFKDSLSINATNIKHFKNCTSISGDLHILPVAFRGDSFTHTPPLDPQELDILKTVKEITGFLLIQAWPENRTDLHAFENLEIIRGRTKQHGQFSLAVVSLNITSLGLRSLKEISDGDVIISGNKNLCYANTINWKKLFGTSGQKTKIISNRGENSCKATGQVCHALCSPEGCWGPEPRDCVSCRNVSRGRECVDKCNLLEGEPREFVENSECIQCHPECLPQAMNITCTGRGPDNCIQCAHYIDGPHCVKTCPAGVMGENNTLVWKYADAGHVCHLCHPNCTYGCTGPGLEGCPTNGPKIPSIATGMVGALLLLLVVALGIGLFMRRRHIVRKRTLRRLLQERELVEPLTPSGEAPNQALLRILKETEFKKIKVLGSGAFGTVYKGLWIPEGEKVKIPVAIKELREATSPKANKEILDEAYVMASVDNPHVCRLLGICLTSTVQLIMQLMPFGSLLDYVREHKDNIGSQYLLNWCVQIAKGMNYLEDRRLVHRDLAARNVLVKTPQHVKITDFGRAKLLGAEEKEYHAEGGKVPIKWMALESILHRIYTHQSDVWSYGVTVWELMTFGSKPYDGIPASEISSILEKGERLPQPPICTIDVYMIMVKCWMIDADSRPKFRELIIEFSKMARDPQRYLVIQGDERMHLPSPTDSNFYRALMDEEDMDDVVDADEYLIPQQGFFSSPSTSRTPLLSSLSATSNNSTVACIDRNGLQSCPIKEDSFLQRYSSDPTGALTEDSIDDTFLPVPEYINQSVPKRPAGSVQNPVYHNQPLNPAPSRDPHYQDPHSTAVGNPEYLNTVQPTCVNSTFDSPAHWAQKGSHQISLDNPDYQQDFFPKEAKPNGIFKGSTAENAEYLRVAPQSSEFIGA
UniProt P00533, with tags, fused parts or gaps DEL746-750/C797S limits assumed: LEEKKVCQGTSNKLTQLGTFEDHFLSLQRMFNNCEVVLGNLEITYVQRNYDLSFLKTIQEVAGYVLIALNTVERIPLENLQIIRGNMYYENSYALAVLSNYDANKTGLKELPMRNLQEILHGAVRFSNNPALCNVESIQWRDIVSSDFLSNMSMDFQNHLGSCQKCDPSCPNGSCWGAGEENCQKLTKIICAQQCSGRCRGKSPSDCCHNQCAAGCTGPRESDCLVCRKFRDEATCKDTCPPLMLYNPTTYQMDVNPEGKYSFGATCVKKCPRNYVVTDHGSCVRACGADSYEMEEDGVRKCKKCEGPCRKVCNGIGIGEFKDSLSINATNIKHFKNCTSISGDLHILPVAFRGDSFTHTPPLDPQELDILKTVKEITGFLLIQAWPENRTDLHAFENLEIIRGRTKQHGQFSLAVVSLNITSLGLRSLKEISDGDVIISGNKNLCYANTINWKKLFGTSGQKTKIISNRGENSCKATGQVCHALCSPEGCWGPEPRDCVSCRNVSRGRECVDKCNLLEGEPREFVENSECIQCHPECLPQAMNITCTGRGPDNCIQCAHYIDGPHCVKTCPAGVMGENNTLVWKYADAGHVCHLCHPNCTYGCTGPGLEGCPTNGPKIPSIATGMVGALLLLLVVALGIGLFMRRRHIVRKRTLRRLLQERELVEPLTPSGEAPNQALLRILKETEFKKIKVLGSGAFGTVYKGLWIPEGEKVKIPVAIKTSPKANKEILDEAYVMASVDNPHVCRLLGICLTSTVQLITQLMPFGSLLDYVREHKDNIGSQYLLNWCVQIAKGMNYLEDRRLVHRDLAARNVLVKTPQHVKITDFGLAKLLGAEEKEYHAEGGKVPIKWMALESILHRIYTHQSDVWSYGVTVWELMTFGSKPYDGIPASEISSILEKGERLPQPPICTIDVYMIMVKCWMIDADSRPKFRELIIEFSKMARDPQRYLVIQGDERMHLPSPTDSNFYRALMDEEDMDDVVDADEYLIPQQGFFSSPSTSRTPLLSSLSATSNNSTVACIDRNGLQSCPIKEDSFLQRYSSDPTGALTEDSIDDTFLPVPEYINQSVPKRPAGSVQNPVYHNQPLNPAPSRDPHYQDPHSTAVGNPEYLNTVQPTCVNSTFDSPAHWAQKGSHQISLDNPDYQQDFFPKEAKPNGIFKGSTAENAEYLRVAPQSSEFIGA
UniProt P00533, with tags, fused parts or gaps DEL746-750/T790M/C797S limits assumed: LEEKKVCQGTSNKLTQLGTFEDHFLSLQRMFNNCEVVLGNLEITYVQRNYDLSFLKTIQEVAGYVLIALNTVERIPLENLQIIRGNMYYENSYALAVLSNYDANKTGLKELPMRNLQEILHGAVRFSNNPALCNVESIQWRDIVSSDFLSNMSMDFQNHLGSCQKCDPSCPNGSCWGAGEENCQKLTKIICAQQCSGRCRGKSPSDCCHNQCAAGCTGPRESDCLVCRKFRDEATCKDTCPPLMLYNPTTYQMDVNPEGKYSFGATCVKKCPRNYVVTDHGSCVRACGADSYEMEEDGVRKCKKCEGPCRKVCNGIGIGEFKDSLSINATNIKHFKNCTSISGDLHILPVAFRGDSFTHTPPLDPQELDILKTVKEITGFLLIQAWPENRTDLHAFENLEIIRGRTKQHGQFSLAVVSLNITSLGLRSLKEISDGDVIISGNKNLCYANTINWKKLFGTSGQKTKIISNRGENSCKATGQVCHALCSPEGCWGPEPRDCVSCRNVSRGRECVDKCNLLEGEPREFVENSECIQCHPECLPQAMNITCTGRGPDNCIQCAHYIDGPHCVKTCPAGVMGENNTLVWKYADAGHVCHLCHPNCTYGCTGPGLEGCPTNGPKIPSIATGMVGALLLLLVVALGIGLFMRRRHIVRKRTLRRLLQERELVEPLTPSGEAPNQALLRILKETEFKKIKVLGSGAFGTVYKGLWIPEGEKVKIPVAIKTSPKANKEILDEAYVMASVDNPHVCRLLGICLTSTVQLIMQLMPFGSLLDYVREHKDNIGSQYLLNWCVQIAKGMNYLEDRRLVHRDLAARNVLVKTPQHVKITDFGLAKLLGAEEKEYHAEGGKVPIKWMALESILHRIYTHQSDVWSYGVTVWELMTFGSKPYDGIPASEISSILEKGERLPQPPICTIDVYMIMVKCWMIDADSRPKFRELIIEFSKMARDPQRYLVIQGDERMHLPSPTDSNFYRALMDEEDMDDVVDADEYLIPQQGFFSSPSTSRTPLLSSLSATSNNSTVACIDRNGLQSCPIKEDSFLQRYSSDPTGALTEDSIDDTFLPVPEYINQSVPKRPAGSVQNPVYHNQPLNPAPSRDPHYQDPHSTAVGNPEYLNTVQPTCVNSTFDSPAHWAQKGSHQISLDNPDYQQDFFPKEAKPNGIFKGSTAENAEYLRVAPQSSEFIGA

One may read the IC50 as the concentration at which inhibition is half-maximal.

Where two headings read alike, the source gives them in different places.

One test concerns the target EGFR WT (Homo sapiens, UniProt P00533). Description: Biochemical EGFR kinase assay (Lance Ultra TR-FRET), wildtype. On the technique in general: In TR-FRET formats the signal depends on donor and acceptor labels being close together.
In test [1] the target is EGFR D19TMCS (del19/T790M/C797S) (Homo sapiens, UniProt P00533, C797S/DEL746-750/T790M). Description: Biochemical EGFR kinase assay (Lance Ultra TR-FRET), triple mutant del19/T790M/C797S.
In the next test the target is EGFR LRCS (L858R/C797S) (Homo sapiens, UniProt P00533, C797S/L858R). In words: Biochemical EGFR kinase assay (Lance Ultra TR-FRET), double mutant L858R/C797S.
The target of a further test is EGFR D19CS (del19/C797S) (Homo sapiens, UniProt P00533, C797S/DEL746-750). Description: Biochemical EGFR kinase assay (Lance Ultra TR-FRET), double mutant del19/C797S.
In test [2] the target is EGFR LRTMCS (L858R/T790M/C797S) (Homo sapiens, UniProt P00533, C797S/L858R/T790M). In words: Biochemical EGFR kinase assay (Lance Ultra TR-FRET), triple mutant L858R/T790M/C797S.
The mark [3] stands for this setting: read-out: IC50, EGFR WT, 1 mM, ATP 1 mM, EGFR wildtype.
Setting [4] is: read-out: IC50, EGFR WT, Km, ATP at Km, EGFR wildtype.
The mark [5] stands for this setting: read-out: IC50, EGFR D19TMCS, Km, ATP at Km, EGFR del19/T790M/C797S.
[6] abbreviates: read-out: IC50, EGFR-LRCS, 1 mM, ATP 1 mM, EGFR L858R/C797S.
Where [7] appears, read: read-out: IC50, EGFR-LRCS, Km, ATP at Km, EGFR L858R/C797S.
The mark [8] stands for this setting: read-out: IC50, EGFR-D19CS, 1 mM, ATP 1 mM, EGFR del19/C797S.
The mark [9] stands for this setting: read-out: IC50, EGFR-D19CS, Km, ATP at Km, EGFR del19/C797S.
[10] abbreviates: read-out: IC50, EGFR LRTMCS, 1 mM, ATP 1 mM, EGFR L858R/T790M/C797S.
Where [11] appears, read: read-out: IC50, EGFR LRTMCS, Km, ATP at Km, EGFR L858R/T790M/C797S.
Setting [12] is: read-out: EGFR WT IC50, ATP 1 mM.
[13] abbreviates: read-out: EGFR D19TMCS IC50, ATP 1 mM.
[14] abbreviates: read-out: EGFR D19TMCS IC50, ATP Km.
[15] abbreviates: read-out: EGFR LRCS IC50, ATP 1 mM.
The mark [16] stands for this setting: read-out: EGFR LRCS IC50, ATP Km.
[17] abbreviates: read-out: EGFR D19CS IC50, ATP 1 mM.
Setting [18] is: read-out: EGFR D19CS IC50, ATP Km.
The mark [19] stands for this setting: read-out: EGFR LRTMCS IC50, ATP 1 mM.
Setting [20] is: read-out: EGFR LRTMCS IC50, ATP Km.

On to `Cc1nn(C)c2c1-c1nccc(n1)Nc1cc(c(-c3ncc(CN4CCC(F)(F)CC4)cc3F)cn1)NCC[C@H](C)O2`, for which the IC50 at EGFR WT (setting [3]) is more than 1000 nM; at EGFR WT (setting [4]), 10 to 100 nM; in test [1] (setting [5]), less than 10 nM; on EGFR LRCS (L858R/C797S) (setting [6]) it was 100 to 1000 nM; on EGFR LRCS (L858R/C797S) (setting [7]) it was less than 10 nM; on EGFR D19CS (del19/C797S) (setting [8]) it was 10 to 100 nM. For the same compound, the results for the IC50 (on EGFR D19CS (del19/C797S) (setting [9]); in test [2] (setting [10]); in test [2] (setting [11])) were 10 to 100 nM, 10 to 100 nM and less than 10 nM, respectively.

As for `C[C@H]1CCNc2cc(ncc2-c2cnc(OC3COC3)cn2)Nc2ccnc(n2)-c2cnn(C)c2O1`, the IC50 on EGFR WT (setting [12]) is more than 1000 nM; at EGFR WT (read-out: EGFR WT IC50, ATP Km), less than 10 nM; in test [1] (setting [13]), less than 10 nM; in test [1] (setting [14]), less than 10 nM; at EGFR LRCS (L858R/C797S) (setting [15]), 10 to 100 nM; on EGFR LRCS (L858R/C797S) (setting [16]), less than 10 nM. The IC50 at EGFR D19CS (del19/C797S) (setting [17]) is 10 to 100 nM; at EGFR D19CS (del19/C797S) (setting [18]) it was less than 10 nM; in test [2] (setting [19]) it was less than 10 nM; in test [2] (setting [20]) it was less than 10 nM.

Consider `Cc1nn(C)c2c1-c1nccc(n1)Nc1cc(c(-c3ncc(CN4CC(O)C(C)(C)C4)cc3F)cn1)NCC[C@H](C)O2` (stereo partly drawn), for which the IC50 at EGFR WT (setting [12]) is more than 1000 nM; at EGFR WT (read-out: EGFR WT IC50, ATP Km) it was 10 to 100 nM; in test [1] (setting [13]), less than 10 nM; in test [1] (setting [14]), less than 10 nM; at EGFR LRCS (L858R/C797S) (setting [15]), 10 to 100 nM; at EGFR LRCS (L858R/C797S) (setting [16]) it was less than 10 nM. The IC50 is 10 to 100 nM on EGFR D19CS (del19/C797S) (setting [17]), less than 10 nM at EGFR D19CS (del19/C797S) (setting [18]), less than 10 nM in test [2] (setting [19]) and less than 10 nM in test [2] (setting [20]).

On to `Cc1nn(C)c2c1-c1nccc(n1)Nc1cc(c(-c3ccc(C(F)F)cn3)cn1)N[C@@H](C)CCO2`, for which the IC50 is more than 1000 nM on EGFR WT (setting [12]); more than 1000 nM on EGFR WT (read-out: EGFR WT IC50, ATP Km); less than 10 nM in test [1] (setting [13]); less than 10 nM in test [1] (setting [14]); more than 1000 nM on EGFR LRCS (L858R/C797S) (setting [15]); 10 to 100 nM on EGFR LRCS (L858R/C797S) (setting [16]). In addition, the IC50 is 100 to 1000 nM at EGFR D19CS (del19/C797S) (setting [17]), 10 to 100 nM on EGFR D19CS (del19/C797S) (setting [18]), 100 to 1000 nM in test [2] (setting [19]) and less than 10 nM in test [2] (setting [20]).

In the case of `Cc1nn(C)c2c1-c1nccc(n1)Nc1cc(c(-c3ncc(CN4CC5(C4)CS(=O)(=O)C5)cc3F)cn1)NCC[C@H](C)O2`, the IC50 at EGFR WT (setting [3]) is more than 1000 nM; on EGFR WT (setting [4]), less than 10 nM; in test [1] (setting [5]) it was 10 to 100 nM; on EGFR LRCS (L858R/C797S) (setting [6]), less than 10 nM; on EGFR LRCS (L858R/C797S) (setting [7]), less than 10 nM; at EGFR D19CS (del19/C797S) (setting [8]), 10 to 100 nM. Moreover, the IC50 (at EGFR D19CS (del19/C797S) (setting [9]); in test [2] (setting [10]); in test [2] (setting [11])) was less than 10 nM each time.

With `Cc1nn(C)c2c1-c1nccc(n1)Nc1cc(c(-c3ncc(CN4CC(CC(F)F)C4)cc3F)cn1)N[C@@H](C)CCO2`, the IC50 on EGFR WT (setting [12]) is more than 1000 nM; at EGFR WT (read-out: EGFR WT IC50, ATP Km), 10 to 100 nM; in test [1] (setting [13]), less than 10 nM; in test [1] (setting [14]), less than 10 nM; at EGFR LRCS (L858R/C797S) (setting [15]), 10 to 100 nM; at EGFR LRCS (L858R/C797S) (setting [16]), less than 10 nM. For the same compound, the IC50 (on EGFR D19CS (del19/C797S) (setting [17]); on EGFR D19CS (del19/C797S) (setting [18]); in test [2] (setting [19]); in test [2] (setting [20])) was less than 10 nM in each case.

Turning to `C[C@H]1CCOc2c(cnn2C)-c2nccc(n2)Nc2cc(c(-c3ncc(CN4CC5(C4)CC5(F)F)cc3F)cn2)N1`, the IC50 is more than 1000 nM on EGFR WT (setting [12]); 10 to 100 nM at EGFR WT (read-out: EGFR WT IC50, ATP Km); less than 10 nM in test [1] (setting [13]); less than 10 nM in test [1] (setting [14]); 100 to 1000 nM at EGFR LRCS (L858R/C797S) (setting [15]); less than 10 nM on EGFR LRCS (L858R/C797S) (setting [16]). Moreover, the IC50 on EGFR D19CS (del19/C797S) (setting [17]) is 10 to 100 nM; at EGFR D19CS (del19/C797S) (setting [18]), less than 10 nM; in test [2] (setting [19]), less than 10 nM; in test [2] (setting [20]), less than 10 nM.

Turning to `Cc1nn(C)c2c1-c1nccc(n1)Nc1cc(c(-c3ccc(C(C)(C)F)cn3)cn1)NCC[C@@H](C)O2`, the IC50 on EGFR WT (setting [3]) is more than 1000 nM; at EGFR WT (setting [4]) it was 10 to 100 nM; in test [1] (setting [5]), less than 10 nM; on EGFR LRCS (L858R/C797S) (setting [6]) it was 10 to 100 nM; at EGFR LRCS (L858R/C797S) (setting [7]) it was less than 10 nM; at EGFR D19CS (del19/C797S) (setting [8]) it was less than 10 nM. Besides, the IC50 (on EGFR D19CS (del19/C797S) (setting [9]); in test [2] (setting [10]); in test [2] (setting [11])) was less than 10 nM in each case.

For the compound `Cc1nn(C)c2c1-c1nccc(n1)Nc1cc(c(-c3ccc(N4CCN(C)CC4)cn3)cn1)N[C@@H](C)CCO2`, the IC50 at EGFR WT (setting [12]) was more than 1000 nM; on EGFR WT (read-out: EGFR WT IC50, ATP Km), 10 to 100 nM; in test [1] (setting [13]), less than 10 nM; in test [1] (setting [14]) it was less than 10 nM; on EGFR LRCS (L858R/C797S) (setting [15]) it was less than 10 nM; on EGFR LRCS (L858R/C797S) (setting [16]) it was less than 10 nM. Besides, the IC50 (on EGFR D19CS (del19/C797S) (setting [17]); at EGFR D19CS (del19/C797S) (setting [18]); in test [2] (setting [19]); in test [2] (setting [20])) was less than 10 nM throughout.
